Data as given in patent US6028222A (priority 1996, dated 2000).

Assay: Stabilization of dilute paracetamol solution by free radical scavengers (formula A)
Format: physicochemical
Details: 1 mg/ml; 48 hours
Protocol: The solutions thus prepared were divided in 10 ml, 100 ml or 80 ml capacity vials, stoppered with a Bromobutyl stopper and capped with an aluminium cap. The preparation was examined for any pink color development.
After autoclaving at 121° C. for 20 minutes, the vials were stored for 48 hours, either in the presence of actinic light at 5500° K. at room temperature or at 70° C. in the dark (formula A).

Which “color at 70° C.” value does the source give for `OCC(O)CS` (stereo not drawn) [α-monothioglycerol] here?
Its value is “colorless”.

What about the “color upon exposure to light” value of the same compound?
The value was “colorless”.
